Structures are written as SMILES.

Amino acid sequences for entries named in this document (tags omitted).
UniProt O96017, whole entry: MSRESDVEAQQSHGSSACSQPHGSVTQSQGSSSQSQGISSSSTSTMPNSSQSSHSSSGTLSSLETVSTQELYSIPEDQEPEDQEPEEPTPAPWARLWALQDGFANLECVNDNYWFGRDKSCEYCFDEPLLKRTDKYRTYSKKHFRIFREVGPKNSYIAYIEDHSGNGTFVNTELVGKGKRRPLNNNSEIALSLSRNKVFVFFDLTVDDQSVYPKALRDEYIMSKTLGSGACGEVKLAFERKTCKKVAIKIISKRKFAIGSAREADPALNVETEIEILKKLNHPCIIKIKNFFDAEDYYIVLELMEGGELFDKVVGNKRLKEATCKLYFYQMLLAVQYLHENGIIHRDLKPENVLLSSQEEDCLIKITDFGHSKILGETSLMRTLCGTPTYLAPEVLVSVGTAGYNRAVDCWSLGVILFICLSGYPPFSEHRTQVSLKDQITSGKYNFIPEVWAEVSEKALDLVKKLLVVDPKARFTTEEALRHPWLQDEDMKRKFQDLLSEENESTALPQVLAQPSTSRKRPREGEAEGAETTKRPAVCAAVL

Assay [1] concerns the target T1, recombinant human full length Chk1 (Homo sapiens, UniProt O14757).
T1 construct: baculovirus derived recombinant human full length Chk1 with histidine tag; histidine tag; host or cells: baculovirus system (insect cells) for Chk1; E. coli for the GST-Cdc25C substrate
T1 sequence (O14757 1-476): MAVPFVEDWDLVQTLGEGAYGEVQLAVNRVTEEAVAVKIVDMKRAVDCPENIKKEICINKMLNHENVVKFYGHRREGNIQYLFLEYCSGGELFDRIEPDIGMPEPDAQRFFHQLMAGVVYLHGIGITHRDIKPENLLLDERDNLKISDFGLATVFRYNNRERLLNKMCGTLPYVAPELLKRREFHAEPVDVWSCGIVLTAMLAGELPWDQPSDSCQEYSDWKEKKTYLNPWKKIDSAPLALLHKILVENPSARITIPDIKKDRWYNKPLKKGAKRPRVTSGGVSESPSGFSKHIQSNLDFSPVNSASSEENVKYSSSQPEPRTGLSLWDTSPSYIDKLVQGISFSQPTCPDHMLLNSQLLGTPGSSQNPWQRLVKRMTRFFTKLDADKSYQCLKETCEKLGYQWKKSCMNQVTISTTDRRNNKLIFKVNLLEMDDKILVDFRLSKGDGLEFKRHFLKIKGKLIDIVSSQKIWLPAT
Description: In vitro kinase inhibition (CycLex), phosphorylation of serine 216 on GST-Cdc25C. In kind it is biochemical. As to the method: (§1) In vitro kinase inhibition analysis was performed by CycLex, Co. Ltd., Nagano, Japan. Briefly, baculovirus derived recombinant human full length Chk1 with histidine tag or E. Coli derived recombinant human full length Chk2 fused with GST were used as kinases. E. Coli derived recombinant GST-Cdc25C (amino acis 167-267) was used as a substrate. Reaction conditions were 20 mM Hepes-KOH (pH7.5), 1 mM DTT, 80 μg/ml BSA, 10 mM MgCl2 and […] at 30 degree for 60 min. The phosphorylation of serine 216 on GST-Cdc25C was detected by anti-Cdc25C-phosphorylated 5216 antibody with enzyme linked immune assay.

Assay [2] concerns the target T2, recombinant human full length Chk2 (Homo sapiens, UniProt O96017).
T2 construct: E. Coli derived recombinant human full length Chk2 fused with GST; host or cells: E. coli
Described as above. In kind it is biochemical. The method, then:
as §1

What is called IC50 is the concentration at which inhibition is half-maximal. For the compound `N=C(N)NCCC[C@@H](NC(=O)[C@@H](CCCNC(=N)N)NC(=O)[C@@H](CCC(N)=O)NC(=O)[C@@H](CCCNC(=N)N)NC(=O)[C@@H](CCCNC(=N)N)NC(=O)[C@@H](CCCNC(=N)N)NC(=O)[C@@H](CC1CCCCC1)NC(=O)[C@@H](Cc1c(F)c(F)c(F)c(F)c1F)NC(=O)[C@@H](CO)NC(=O)[C@@H](Cc1c[nH]c2ccccc12)NC(=O)[C@@H](CO)NC(=O)[C@H](N)Cc1ccc(C(=O)c2ccccc2)cc1)C(=O)O` [CBP501, (d-Bpa)(d-Ser)(d-Trp)(d-Ser)(d-Phe-2,3,4,5,6-F)(d-Cha)(d-Arg)(d-Arg)(d-Arg)(d-Gln)(d-Arg)(d-Arg)], the IC50 in assay [1] was found to be 7.9 µM; in assay [2], 18.6 µM.
